Test results taken from PubChem BioAssay AID493056 (National Center for Advancing Translational Sciences (NCATS), 2011).
Several values for one entry are separate records, joined by “and”; a condition that tells them apart may be missing. Equal entries are not always repeated. Only a part is listed here, and it is no random draw. Some of these compounds have results that are not shown, active ones among them. Activity calls are given as the source filed them. Rule as the data show it: active = enhancement above about 30%; inactive = the rest.

Chains of the proteins cited; added tags and fusions are not shown.
UniProt P34981, whole entry: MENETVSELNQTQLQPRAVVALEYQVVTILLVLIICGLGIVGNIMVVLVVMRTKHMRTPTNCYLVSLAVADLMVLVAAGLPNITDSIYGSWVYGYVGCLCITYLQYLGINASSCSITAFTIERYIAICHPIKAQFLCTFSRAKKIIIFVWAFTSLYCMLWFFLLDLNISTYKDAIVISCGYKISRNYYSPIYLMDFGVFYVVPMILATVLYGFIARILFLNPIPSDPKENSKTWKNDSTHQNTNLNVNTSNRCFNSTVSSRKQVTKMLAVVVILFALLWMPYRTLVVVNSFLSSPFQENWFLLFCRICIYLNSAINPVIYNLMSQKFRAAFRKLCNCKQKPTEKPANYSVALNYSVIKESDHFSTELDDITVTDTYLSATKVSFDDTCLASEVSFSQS

These compounds were tested against Thyrotropin-releasing hormone receptor (Homo sapiens) (UniProt P34981) (assay: qHTS for Small Molecule Agonists and Allosteric Enhancers of Human TRH Receptor: Primary Screen for Enhancers). Conditions: TRHR cells, fluo-8 calcium fluorescence, EC20 TRH enhancement; at 2 µM; active compounds read high.
From the text: NIH Chemical Genomics Center [NCGC] NIH Molecular Libraries Probe Centers Network [MLPCN] MLPCN Grant: MH089816-01 Assay Submitter (PI): Marvin Gershengorn This project aims to identify small drug-like molecules that activate (agonists) the thyrotropin releasing hormone (TRH) receptor (TRHR) or enhance its TRH-stimulated activity (allosteric enhancers). TRHR, a drug-accessible cell surface receptor expressed in specific brain regions, and its ligand TRH have been implicated in several central nervous system disorders, including depression and anxiety. Small molecule TRHR agonists or allosteric enhancers that are metabolically stable and able to cross the blood-brain barrier might serve as probes to elucidate the roles of brain TRH receptors in animal models, and might be valuable as lead compounds for the development of drugs to treat patients with central nervous system disorders. Upon TRHR-Gq activation in TRHR cells, intracellular calcium is released from stores in the endoplasmic reticulum. […] This primary screen measures compound-induced enhancement of an EC20 stimulation of the receptor by its native ligand.
For the HTS assay freshly prepared cells are plated at a density of 2000/well in 3 ul of complete DMEM medium containing 10% serum in 1536-well plates and cultured over night at 37 C in a humidified incubator with 5% CO2. The next day, 2 ul of a no wash calcium dye (ABD Bioquest) was added to the cells and plates were incubated at room temperature for 1 hour. For the assay, assay plates were loaded into the FDSS kinetic plate reader. A 10 cycle (1 second/cycle) baseline measurement is taken and then the FDSS online 1536 pintool delivers 23 nl of compound library (as well as TRH controls) to the plate. The plate is measured for kinetically at 1 cycle/sec for 180 seconds and is considered to be the agonist portion of the assay (eg, compounds which activate a positive calcium response during this portion are flagged as potential agonists). Following the 180 second read, 1 ul of either an EC20 (positive modulation assay) is delivered by an onboard pipette head. Measurements are taken kinetically for an additional 180 seconds. TRHR FDSS Screening Protocol 1. Reagent, 3 uL 2000 cells/well 1536 TC treated Black plate in media containing 10% FCS 2. Time, 18 hours, 33.5C 5% CO2 (cells grown at 37C) 3. Reagent, 2 uL ABD fluo-8 Ca dye 4. Time, 30 min-1.5hrs hours, Room temp (6 plates/batch) 5. Detector, EX 480/EM 530C, FDSS 10 cycles baseline (1sec/cycle) 6. Compound, 23 nL of stock solution from library 7. Detector, EX 480/EM 530C, FDSS 230 cycles (1sec/cycle) Agonist mode 8. Compound, 1 ul EC20 of TRH made up in HEPES HBSS, 10 nM final 9. Detector, EX 480/EM 530C, FDSS 100 cycles (1sec/cycle) Potentiator mode
Also: 0% is about no effect.

| Compound | enhancement |
| --- | --- |
| COc1cccc(C(=O)NCC2(N3CCCCC3)CCCCC2)c1 | inactive: 3.05% |
| COc1ccc(Cl)cc1C(=O)NCC1(N(C)C)CCCCC1 | inactive: 8.11% |
| O=C(NCC1(N2CCCCC2)CCCCC1)c1cccc(Cl)c1 | inactive: -8.6% |
| CN(C)C1(CNC(=O)c2ccc(Br)cc2)CCCCC1 | inactive: 7.11% |
| COc1cc(C(=O)NCC2(N(C)C)CCCCC2)c([N+](=O)[O-])cc1OC | inactive: 2.15% |
| Cc1cccc(C(=O)NCC2(N(C)C)CCCCC2)c1 | inactive: 13.4% |
| COc1cc(C(=O)NCC2(N(C)C)CCCCC2)cc(OC)c1OC | inactive: 19% |
| COc1ccc(Br)c(C(=O)NCC2(N3CCCCC3)CCCCC2)c1 | inactive: -4.43% |
| CC(C)Oc1ccc(C(=O)NCC2(N(C)C)CCCCC2)cc1 | inactive: 4.47% and inactive: 4.92% |
| CN(C)c1cccc(C(=O)NCC2(N(C)C)CCCCC2)c1 | inactive: 0.0018% |
| COc1cccc(C(=O)NCC2(N3CCOCC3)CCCCC2)c1 | inactive: -5.91% |
| O=C(OC1CN2CCC1CC2)C(CO)(c1ccccc1)c1ccccc1 (stereo not drawn) | inactive: 7.64% |
| CC(C)COc1ccc(C(=O)NCC2(N(C)C)CCCCC2)cc1 | inactive: 8% |
| CN(C)C1(CNC(=O)c2cccc(Cl)c2)CCCCC1 | inactive: -2.38% |
| CCN(CC)CC(C)C(C)OC(=O)C(O)(c1ccccc1)c1ccccc1 (stereo not drawn) | inactive: -0.146% |
| COc1cc(SC)ccc1C(=O)NCC1(N(C)C)CCCCC1 | inactive: 0.741% |
| CC(C)N1C(=O)CC2(CCN(CCOC(=O)C(O)(c3ccccc3)c3ccccc3)CC2)C1=O | inactive: 1.62% |

| Compound | enhancement |
| --- | --- |
| Cc1ccc(C(=O)NCC2(N3CCCCC3)CCCCC2)cc1 | inactive: -9% |
| CN(C)C1(CNC(=O)c2ccccc2F)CCCCC1 | inactive: -5.56% |
| O=C(NCC1(N2CCCCC2)CCCCC1)c1cc([N+](=O)[O-])ccc1Cl | inactive: -7.83% |
| CN1[C@@H]2CC[C@H]1CC(OC(=O)C(O)(c1ccccc1)c1ccccc1)C2 (stereo partly drawn) | inactive: 6.2% |
| C=CCN1CCN(CCOC(=O)C(O)(c2ccccc2)c2ccccc2)CC1 | inactive: 0.661% |
| O=C(NCC1(N2CCCCC2)CCCCC1)c1cc(F)c(F)cc1Cl | inactive: -4.94% |
| COc1ccc(C(=O)NCC2(N(C)C)CCCCC2)cc1 | inactive: 5.8% |
| CCOc1cccc(C(=O)NCC2(N(C)C)CCCCC2)c1 | inactive: 2.97% |
| Cc1cc(C(=O)NCC2(N3CCCCC3)CCCCC2)ccc1[N+](=O)[O-] | inactive: -6.14% |
| CCN1CCCC(OC(=O)C2(O)c3ccccc3C=Cc3ccccc32)C1 (stereo not drawn) | inactive: -5.55% |
| O=C(NCC1(N2CCCCC2)CCCCC1)c1cccc(Br)c1 | inactive: -9.03% |
| CN(C)C1(CNC(=O)c2ccccc2[N+](=O)[O-])CCCCC1 | inactive: 0.416% |
| Cc1ccccc1C(=O)NCC1(N2CCCCC2)CCCCC1 | inactive: -4.75% |
| CN(C)C1CCCC1OC(=O)C(O)(c1ccccc1)c1ccccc1 (stereo not drawn) | inactive: -5.45% |
| CN(C)c1ccc(C(=O)NCC2(N(C)C)CCCCC2)cc1 | inactive: 7.35% |
| CCCCOc1ccccc1C(=O)NCC1(N(C)C)CCCCC1 | inactive: 4.93% |
